Experimental data reported in patent US20150374680A1, “POCHOXIME CONJUGATES USEFUL FOR THE TREATMENT OF HSP90 RELATED PATHOLOGIES” (UNIVERSITE DE STRASBOURG, priority 2010, published 2015).

Test system: Her-2 in SkBr3 cells
Assay: Her-2 depletion in SkBr3 cells (pharmacodynamic marker of cellular efficacy)
Format: cell-based
Details: read-out: PD (μM), pharmacodynamic EC50, Her-2 depletion; SkBr3 cells treated with the inhibitor overnight

SMILES	EC50
CCCC1C/C=C/CCCCC(=NOCC(=O)N2CCCCC2)Cc2cc(O)cc(O)c2C(=O)O1 (stereo not drawn)	> 10 µM
CCCC1C/C=C/CCCCC(=NOCC(=O)N2CCCCC2)Cc2c(Cl)c(O)cc(O)c2C(=O)O1 (stereo not drawn)	≤ 5 µM
O=C1OCC/C=C/CCCCC(=NOCC(=O)N2CCCCC2)Cc2c(Cl)c(O)cc(O)c21	≤ 10 µM
